Test results as given in paper PMC3016232 (Cancer Chemotherapy and Pharmacology, 2010).

Details: human, in vivo

For `CCc1c2c(nc3ccc(O[C@@H]4O[C@H](C(=O)O)[C@@H](O)[C@H](O)[C@H]4O)cc13)-c1cc3c(c(=O)n1C2)COC(=O)[C@]3(O)CC` [SN-38G], the “increase of mean SN-38G AUC with methimazole compared to without” value was 67%.
